Measurements published in ChEMBL document CHEMBL2375225, “Structure-activity relationship of 5-chloro-2-methyl-3-(1,2,3,6-tetrahydropyridin-4-yl)-1H-indole analogues as 5-HT(6) receptor agonists” (Eur J Med Chem, 2013).

By UniProt entry, the sequences of proteins in these tests, tags left out.
UniProt P19327, whole entry: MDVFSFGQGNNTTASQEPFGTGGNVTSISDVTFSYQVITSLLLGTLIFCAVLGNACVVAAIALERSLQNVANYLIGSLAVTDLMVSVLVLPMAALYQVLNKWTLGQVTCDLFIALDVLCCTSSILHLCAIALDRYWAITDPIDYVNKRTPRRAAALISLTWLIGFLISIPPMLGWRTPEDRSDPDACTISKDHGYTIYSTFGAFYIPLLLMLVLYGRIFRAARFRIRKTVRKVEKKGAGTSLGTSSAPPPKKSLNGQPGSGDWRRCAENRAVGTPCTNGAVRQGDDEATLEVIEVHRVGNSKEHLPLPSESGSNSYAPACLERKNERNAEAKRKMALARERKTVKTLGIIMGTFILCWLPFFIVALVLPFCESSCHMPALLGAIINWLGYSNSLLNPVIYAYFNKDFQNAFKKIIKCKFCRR

Target: 5-hydroxytryptamine receptor 1A (Rattus norvegicus, UniProt P19327)
Experiment: Displacement of [3H]-8-OH-DPAT from rat 5HT1A receptor

Compound COc1ccc2[nH]cc(C3=CCNCC3)c2c1 [RU-24969] has an IC50 of 4 nM.
